From ChEMBL document CHEMBL4229484, “7β-Methyl substituent is a structural locus associated with activity cliff for nepenthone analogues” (2018)

By UniProt entry, the sequences of proteins in these tests, tags left out.
UniProt P33535, whole entry: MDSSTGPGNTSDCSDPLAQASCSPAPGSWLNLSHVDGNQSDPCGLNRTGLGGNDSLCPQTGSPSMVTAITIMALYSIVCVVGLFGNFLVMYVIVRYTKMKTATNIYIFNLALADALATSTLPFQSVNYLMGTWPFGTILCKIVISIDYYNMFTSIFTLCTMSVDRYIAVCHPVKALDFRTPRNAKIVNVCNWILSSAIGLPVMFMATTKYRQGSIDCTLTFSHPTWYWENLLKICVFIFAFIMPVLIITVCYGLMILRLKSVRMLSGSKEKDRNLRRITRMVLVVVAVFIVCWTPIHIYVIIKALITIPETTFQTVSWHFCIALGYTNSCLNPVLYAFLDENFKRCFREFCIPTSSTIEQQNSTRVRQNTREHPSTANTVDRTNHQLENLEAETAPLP

Assays:
Homo sapiens = species on record: Homo sapiens; experiment: Selectivity ratio of Ki for human MOR expressed in CHO cell membranes to Ki for human KOR expressed in CHO cell membranes
[1] = target: Mu-type opioid receptor (Rattus norvegicus) (UniProt P33535); experiment: Agonist activity at rat MOR expressed in CHO cell membranes after 1 hr by [35S]GTPgammaS binding based liquid scintillation counting analysis relative to control

SMILES	Ratio Ki (Homo sapiens)	Emax [1]
COc1ccc2c3c1O[C@H]1[C@@]4(OC)CC[C@@]5(C[C@]4(C)C(=O)c4ccc(-c6ccccc6)cc4)[C@@H](C2)N(CC2CC2)CC[C@]315	1.8	178%
COc1ccc2c3c1O[C@H]1[C@@]4(OC)CC[C@@]5(C[C@]4(C)C(=O)c4ccc(C(F)(F)F)cc4)[C@@H](C2)N(CC2CC2)CC[C@]315	1.1	216%
COc1ccc2c3c1O[C@H]1[C@@]4(OC)CC[C@@]5(C[C@]4(C)C=O)[C@@H](C2)N(CC2CC2)CC[C@]315	–	264%
